Amino acid sequences for entries named in this document (tags omitted).
UniProt P50406, whole entry: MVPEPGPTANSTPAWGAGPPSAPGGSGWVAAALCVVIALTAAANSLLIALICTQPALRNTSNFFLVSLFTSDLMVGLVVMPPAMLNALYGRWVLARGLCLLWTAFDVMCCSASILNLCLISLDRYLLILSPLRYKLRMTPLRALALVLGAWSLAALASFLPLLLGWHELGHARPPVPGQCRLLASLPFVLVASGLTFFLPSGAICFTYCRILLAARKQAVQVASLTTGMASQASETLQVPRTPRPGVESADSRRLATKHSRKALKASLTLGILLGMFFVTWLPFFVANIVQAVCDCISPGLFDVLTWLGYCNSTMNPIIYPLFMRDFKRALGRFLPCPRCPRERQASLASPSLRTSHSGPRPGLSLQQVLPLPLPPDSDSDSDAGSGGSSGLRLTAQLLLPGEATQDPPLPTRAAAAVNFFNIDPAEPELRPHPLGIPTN

These compounds were tested against human 5-HT6R (Homo sapiens, UniProt P50406) (assay: 5-HT6R radioligand competitive binding assay ([3H]LSD)). Settings: read-out: Ki ± SEM (5-HT6R), membranes of transfected HEK-293 cells, mean of two to four experiments in triplicate.
In the case of O=C(Nc1ccccc1)c1ccc2c(c1)ncn2CCN1CCCCC1, the Ki is reported as > 500 nM.
CC(C)N(CCn1cnc2cc(C(=O)Nc3ccccc3)ccc21)C(C)C was tested, and the Ki was > 500 nM.
With CC(C)N(CCn1cnc2ccc(C(=O)Nc3ccccc3)cc21)C(C)C the Ki was > 500 nM.
With O=C(Nc1ccccc1)c1ccc2ncn(CCN3CCCCC3)c2c1 the Ki was > 500 nM.
